# AlphaSeq binding of Ab-14 light chain variants to a spike HR2 peptide

Values reported by Li et al. 2023, doi:10.1038/s41467-023-39022-2 (FLAb copy).

Target: peptide PDVDLGDISGINAS, taken from heptad repeat 2 (HR2) of SARS-CoV-2 spike.

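The parent was found by panning a naive human phage display library on the peptide. This is the validation round: designs drawn from the data on random variants, tested in the same kind of assay. Several design methods are mixed in this list. The scFvs were displayed on barcoded MATa yeast, the peptide on MATalpha yeast. After mating in shaken culture at 30 °C for 16 h, diploids were selected and their barcode pairs sequenced. The ratio of observed to expected reads was calibrated, replicate by replicate, on BCL2-family standards whose Kd was known from biolayer interferometry. There are six technical replicates.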

The variants keep the heavy chain, the linker and the frameworks of Ab-14 (scFv order VH, a (GGGGS)3 linker, VL).
VH: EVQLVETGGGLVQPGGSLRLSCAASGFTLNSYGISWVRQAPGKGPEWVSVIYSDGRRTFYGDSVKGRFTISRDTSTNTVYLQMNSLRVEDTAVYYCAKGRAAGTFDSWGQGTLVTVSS
VL: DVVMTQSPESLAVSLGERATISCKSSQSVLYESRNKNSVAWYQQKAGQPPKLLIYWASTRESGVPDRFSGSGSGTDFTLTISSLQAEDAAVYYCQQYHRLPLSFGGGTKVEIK

The parent's light chain CDRs are KSSQSVLYESRNKNSVA, WASTRES, QQYHRLPLS; each variant's own CDRs replace them letter for letter. Variants here have more than six changes. Kd is apparent (estimated from mating counts) and averaged on the log scale over replicates with a signal. Smaller is tighter. "nd" means that the variant was in the library but no mating with the target was seen in any replicate; the authors take this as a sign of poor binding, and no number exists. Background: pairings of all light chain designs with three empty control strains gave a value in 4% of cases (median 430 nM, 5th percentile 38 nM). Values in that range, when seen in few replicates, are hard to tell from nonspecific mating. Also given: how often the same scFv was detected with the empty control strains. Values of this round are not directly comparable with the first-round values of the same sequences. Of ten entries with the parent sequence, four were seen in most replicates (averages 2.2 nM to 240 nM), three in one and three in none, so single entries are noisy. In the paper, a design with two or fewer of six values counts as a poor binder.

The variant KWSQSVDLESRNDNSVA, NASCRED, QQYHRLPLS gave 8.3 nM (6 of 6 replicates; controls 1 of 18).
The variant KIAQSMAMTSHHINSVA, QSTTREE, QQYNRLPLS gave 1.0 nM (6 of 6 replicates; controls 1 of 18).
The variant HISQSFMTESVSRNSVA, HQSTREQ, QQYDRLPLS gave 4.2 nM (6 of 6 replicates; controls 5 of 18).
The variant KLQISVLDEERNDNSVA, WASHRES, QQYHRLPLS gave 15 nM (6 of 6 replicates; controls 1 of 18).
The variant YMSQQEPGDWNQQEAVA, EVTYKEH, QQYYRLPLS gave nd (0 of 6 replicates; controls 0 of 18).
The variant VLSDTIENMASEADNIA, DTTETSG, QQYYRLPLS gave 14 nM (6 of 6 replicates; controls 0 of 18).
The variant TIGQVMNYESRNTNSVA, QTSTREE, QDYDRLPLS gave 31 nM (3 of 6 replicates; controls 0 of 18).
The variant KLSIMGLHESIDKKSIA, ERSTREN, QQYHRLPLS gave 1.7 nM (6 of 6 replicates; controls 0 of 18).
The variant KLSTGTYGLTGHTSSVA, HDEMRWE, QQYHKLPLI gave 120 nM (6 of 6 replicates; controls 1 of 18).
The variant KIGGVTNGISRSKNSVA, EQSTRED, QQYDRLPLV gave 7.7 nM (6 of 6 replicates; controls 4 of 18).
The variant QIALAYEEVGHQDNSIA, DETVKPA, QQYLRLPLH gave 170 nM (3 of 6 replicates; controls 0 of 18).
The variant KWSCSQLYDDANKNSVA, NASTRMM, QQYHRLPLS gave 1.2 nM (6 of 6 replicates; controls 0 of 18).
The variant KISFLTNQTFEHSNNVA, EMVTREK, QQYNRLPLS gave 1.5 nM (6 of 6 replicates; controls 0 of 18).
The variant MLSDLVKMGVRNTNSVA, DNSTRGE, QQYDRLPLS gave 110 nM (5 of 6 replicates; controls 0 of 18).
The variant KIHQSELYEDRNINSVA, SASQRSE, QQYHRLPLS gave 790 pM (6 of 6 replicates; controls 0 of 18).
The variant KLSQSVLGQWRNKNSVA, HASTREQ, QDYHRLPLS gave 17 nM (6 of 6 replicates; controls 1 of 18).
The variant HISEMIFAQMKARNSVA, ENNTREA, QQYDRLPLS gave nd (0 of 6 replicates; controls 0 of 18).
The variant NIYQAMHTLMQQKNNVA, DVTNRNR, QQYNRLPLS gave 2.0 nM (6 of 6 replicates; controls 0 of 18).
The variant KLSQVTEYESHNKNNVA, DLTTRGR, QDYHRLPLS gave 2.4 nM (6 of 6 replicates; controls 1 of 18).
The variant KYYPSYLYESRNKNAVA, QASTRES, QQYHLLPLS gave 1.7 nM (6 of 6 replicates; controls 0 of 18).
The variant KISGMSNHQSSVSNNVA, ENVTRVN, QQYFRLPLA gave 24 nM (6 of 6 replicates; controls 2 of 18).
The variant TISQLMNMGQFAINSVA, QAEIRNA, QQYDRLPLM gave nd (0 of 6 replicates; controls 0 of 18).
The variant MISQVMNTLTRQGNNVA, DLAEREE, QQYFRLPLS gave 42 nM (4 of 6 replicates; controls 2 of 18).
The variant KLMGQGDHSIEHANSIA, NVDNVDM, QQYAHLPLS gave 5.9 nM (6 of 6 replicates; controls 3 of 18).
The variant RLTEHQYMRAYANHAVA, DASTRND, QQYHRLPLE gave 850 pM (6 of 6 replicates; controls 2 of 18).
The variant NVGQLMDGGTRNRNNVA, HQSTRED, QHYHRLPLS gave 5.6 nM (6 of 6 replicates; controls 1 of 18).
The variant TLHANIEYGGGTWKSIA, DNVQRAD, QYYQRLPLG gave 34 nM (3 of 6 replicates; controls 3 of 18).
The variant KLGGVTEYEMSNHNSVA, QMTTRES, QQYHRLPLS gave 2.2 nM (6 of 6 replicates; controls 1 of 18).
The variant IFSQSVLMGNMTRNSVA, QASTRFN, QQYHRLPLI gave 34 nM (6 of 6 replicates; controls 1 of 18).
The variant SIQNLGMVNSVWKNSIA, DVNIVED, QQYYRLPLL gave 4.0 nM (6 of 6 replicates; controls 1 of 18).
The variant IIDQLMFWGLKKANSIA, QASLRVN, QQYHHLPLT gave 410 nM (3 of 6 replicates; controls 0 of 18).
The variant IVSQLMLWGLHAKNSIA, EAEMRTN, QQYDRLPLI gave nd (0 of 6 replicates; controls 0 of 18).
The variant KSSWSVDYEDRASNSVA, NASQRLW, QQYHRLPLS gave 1.1 nM (6 of 6 replicates; controls 1 of 18).
The variant TLGDVTRMESNKKSSIA, DMSNRAD, QQYHRLPLS gave 2.1 nM (6 of 6 replicates; controls 2 of 18).
The variant KLRQSYHIESFNKNNVA, EMTTRES, QSYDRLPLS gave 24 nM (6 of 6 replicates; controls 1 of 18).
The variant KLQLGLGVQKNVYYNVA, NESLKTA, QHYFRLPLT gave 68 nM (6 of 6 replicates; controls 0 of 18).
The variant HSNGQLVMGERNKNHVA, STDVRAS, QQYSRLPFT gave 1.2 nM (6 of 6 replicates; controls 1 of 18).
The variant SLEMFTGMLNMYASSIA, NAHYLVQ, QQYYRLPIS gave 860 nM (4 of 6 replicates; controls 0 of 18).
The variant QITQVQQYDAPNTYNVA, DATVSGR, QQYSQLPLT gave 14 nM (6 of 6 replicates; controls 0 of 18).
The variant MISQLMNMGQFAINSVA, QATIRNS, QQYDRLPLT gave 72 nM (5 of 6 replicates; controls 1 of 18).
The variant QMYPFEVAKGEGTNNVA, HVSVRAL, QQYFRLPLV gave 27 nM (6 of 6 replicates; controls 0 of 18).
The variant KSSQEQLYENRMINSVA, DASLRES, QQYHRLPLS gave 900 pM (6 of 6 replicates; controls 0 of 18).
The variant NMSDSTERMASILRNIA, DSTTRAM, QQYARLPLS gave 5.0 nM (6 of 6 replicates; controls 1 of 18).